Experimental findings from patent US20150216865A1, “METHODS OF TREATING A BRUTON'S TYROSINE KINASE DISEASE OR DISORDER” (Celgene Avilomics Research, Inc., priority 2012, published 2015) are described below.

Protein sequences, listed by entry. Tags and fused reporters are not part of them. Lines headed by an entry give the natural chain unless they say otherwise; changes in a name come on top.
UniProt Q06187: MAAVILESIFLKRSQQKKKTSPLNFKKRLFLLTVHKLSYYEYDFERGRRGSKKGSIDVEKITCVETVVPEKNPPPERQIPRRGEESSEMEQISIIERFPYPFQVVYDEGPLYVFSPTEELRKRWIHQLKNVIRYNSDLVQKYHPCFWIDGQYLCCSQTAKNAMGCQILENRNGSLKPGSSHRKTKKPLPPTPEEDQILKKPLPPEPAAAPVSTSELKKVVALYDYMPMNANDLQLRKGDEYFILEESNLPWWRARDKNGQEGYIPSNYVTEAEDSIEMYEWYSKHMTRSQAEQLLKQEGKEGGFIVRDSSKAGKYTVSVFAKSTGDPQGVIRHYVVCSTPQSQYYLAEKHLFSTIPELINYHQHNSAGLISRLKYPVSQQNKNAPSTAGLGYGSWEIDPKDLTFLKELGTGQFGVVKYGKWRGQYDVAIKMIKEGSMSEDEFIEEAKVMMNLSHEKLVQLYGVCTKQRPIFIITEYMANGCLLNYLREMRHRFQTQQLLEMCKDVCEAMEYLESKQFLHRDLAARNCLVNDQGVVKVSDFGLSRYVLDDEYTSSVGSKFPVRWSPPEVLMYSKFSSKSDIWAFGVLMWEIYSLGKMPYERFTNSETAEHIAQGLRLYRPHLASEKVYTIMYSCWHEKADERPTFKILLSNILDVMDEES

Assay [1] concerns the target T1, Btk (Homo sapiens, UniProt Q06187). The assay can be described thus: Btk target site occupancy ELISA, Ramos cells. It is filed as cell-based. Conditions: one hour, n=4. As to the method:
Btk Target Site Occupancy ELISA: An ELISA method for the detection of free uninhibited Btk in mouse, rat, dog, monkey, and human lysates was developed at Celgene Avilomics Research and a validation of this method in human B cell lysate was performed by a CLIA Certified laboratory (Cambridge Biomedical Laboratories, Boston, Mass.) The parameters that were assessed included: accuracy, linearity, dilution, precision (intra and inter-assay), stability, reference range, freeze-thaw cycles, reportable range, specificity, sensitivity, and carryover. […] Standards and samples were transferred to a streptavidin-coated 96-well ELISA plate and mixed while shaking for 1 h at room temperature. […] After wash, goat α-mouse-HRP (1:5000 dilution in PBS+0.05% Tween-20+0.5% BSA) was added and incubated for 1 h at room temperature. The ELISA was developed with addition of tetramethyl benzidine (TMB) followed by Stop Solution and read at OD 450 nm.

For assay [2], the target named is T1, Btk. As to the kind of experiment: Immunoblot of Btk signaling in α-IgM stimulated Ramos cells. It is filed as cell-based. Conditions: anti-IgM, read-out: EC50, Btk autophosphorylation on Tyr223 (cellular Btk kinase inhibition). As to the method:
Following incubation, cells were centrifuged and resuspended in 100 μL of serum-free RPMI and BCR was stimulated with addition of 5 μg/mL α-human IgM. […] Membranes were scanned on a LiCor Odyssey Scanner using infrared fluorescence detection.
Background: In western blotting, separated proteins are transferred to a membrane and probed.

For assay [3], the target named is T1, Btk. The assay can be described thus: Btk biochemical kinase assay. The conditions noted are these: read-out: IC50apparent, Btk kinase activity. As to the method: Compound 1 is a potent, selective inhibitor of Btk. […] Because biochemical kinase assays may overestimate the potency of small molecule kinase inhibitors due to high ATP concentrations found in the cellular environment, cell activity for several of these closely related kinase family members was assessed.
Moreover, the specificity of the Btk target occupancy ELISA derives from the use of a detection monoclonal antibody that selectively recognizes Btk immobilized on the streptavidin substrate by the covalent probe and, therefore, this assay measures only Btk bound to the covalent probe (FIG. 2). By building a standard curve with known amounts of recombinant Btk protein bound to Compound 2, the amount of Btk in any sample can be precisely quantitated. Used in a competition assay, this probe detected free, uninhibited Btk and was excluded from interaction with Btk previously bonded by Compound 1 (FIG. 2). Results from this analysis can be reported in absolute values, such as the pg free Btk/ug total protein or in relative terms by normalization to control samples not exposed to inhibitor.

Structures are written as SMILES.

As for `C=CC(=O)Nc1cccc(Nc2nc(Nc3ccc(OCCOC)cc3)ncc2F)c1` [Compound 1, N-(3-(5-fluoro-2-(4-(2-methoxyethoxyl)phenylamino)pyrimidin-4-ylamino)phenyl)acrylamide], the EC50 (usually the concentration needed to bring the measured effect to its halfway point) was 6 nM at Btk [1] and 8 nM on Btk [2]. In addition, on Btk [3], the IC50 was less than 0.5 nM.
